Data published in patent US5817776A, “Amino acid analogs for tumor imaging” (priority 1996, dated 1998).

Legend:
normal tissue = conditions: in vivo; cited from earlier work
in vivo = conditions: rat, iv
Procedure: In vivo distribution of a compound of the invention, [^18 F]-1-amino-3-fluoro-cyclobutane-1-carboxylic acid (FACBC) was measured in rats having an implanted gliosarcoma. Accumulation in various tissue was measured at 5 min and 60 min post-administration.
Distribution of Radioactivity in Tissues of Unfasted Male
Fisher Rats following Intravenous Administration of [^18 F]FACBC

Question: With OC[C@H]1OC(O)[C@H]([18F])[C@@H](O)[C@@H]1O (stereo partly drawn) [[^18 F]2-FDG, [^18 F]-2-fluoro-2-deoxy-D-glucose, reference compound] as the compound, how does the “uptake in infectious tissue and in the bladder (in words)” value (normal tissue) read?
Answer: high uptake of the 2-FDG radioactivity in infectious tissue and in the bladder

Question: What about the “uptake in normal tissue (in words)” value (normal tissue) of the same compound?
Answer: high uptake in normal tissue

Question: What about the tissue uptake at 5 min (in vivo) of the same compound?
Answer: 1.29 %ID/g

Question: And the tissue uptake at 1 h (in vivo)?
Answer: 1.05 %ID/g
